Patent US8828401B2, “Cytotoxic peptides and antibody drug conjugates thereof” (Pfizer Inc., priority 2011, dated 2014)

Key:
37622A1 NSCLC xenografts = test: 37622A1 NSCLC patient-derived xenografts with anti-Notch ADCs; type: in vivo, nude (Nu/Nu) female mice; conditions: for tumor volume (mm^3 ± SEM): 10 mg/kg Q4dx4
Description: (§1) Humanized anti-Notch antibodies, hu28 and hu75, and rat-human chimeric anti-Notch antibodies, ch28 and ch75, were conjugated to various linker-payload combinations and tested in 37622A1 non-small cell lung cancer (NSCLC), HCC2429 lung cancer, MDA-MB-468 breast cancer and N87 gastric cancer xenograft models. For each model described below the first dose was given on Day 0. The tumors were measured at least once a week and their volume was calculated with the formula: tumor volume (mm^3)=0.5×(tumor width^2)(tumor length). The mean tumor volumes (±S.E.M.) for each treatment group were calculated having a maximum of 10 animals and a minimum of 6 animals to be included.
The effects of anti-Notch ADCs were examined in immunodeficient mice on the in vivo growth of human tumor xenografts that were established from fragments of freshly resected 37622A1 NSCLC tumors obtained in accordance with appropriate consent procedures (Asterand). The 37622A1 NSCLC patient-derived xenografts were subcutaneously passaged in vivo as fragments from animal to animal in nude (Nu/Nu) female mice. When the tumors reached a volume of 150 to 300 mm^3, they were staged to ensure uniformity of the tumor size among various treatment groups. The 37622A1 NSCLC model was dosed intraveneously four times every four days (Q4dx4) with PBS vehicle, humanized anti-Notch ADCs, control huNeg-8.8 ADCs and cisplatin at the doses provided in Table 11.

[1] = system: MDA-MB-468 breast xenografts; test: MDA-MB-468 breast xenografts with anti-Notch ADCs; type: in vivo, female SCID Hairless Outbred (SHO) mice; conditions: for tumor volume (mm^3 ± SEM): vc6780 study
Description: as §1
Similar in vivo experiments were performed with the MDA-MB-468 breast cancer cell line as described above. […] To generate xenografts, female SCID Hairless Outbred (SHO) mice were orthotopically implanted with 10×10^6 MDA-MB-468 cells containing 50% Matrigel (BD Biosciences) in the mammary fat pad. When the tumors reached a volume of 250 to 450 mm^3, the tumors were staged to ensure uniformity of the tumor mass among various treatment groups. The MDA-MB-468 breast model was dosed intraveneously Q4dx4 with PBS vehicle, humanized anti-Notch ADCs and control huNeg-8.8 ADCs at the doses provided in Tables 14 and 15.

B1: hu75-vc6780 (conjugate)
heavy: EVQLVESGGGLVQPGGSLRLSCAASGYAFTDYWMTWVRQAPGKGLEWVAEISPNSGGTNFNEKFKGRFTISVDNAKNSLYLQMNSLRAEDTAVYYCARGEIRYNWFAYWGQGTLVTVSSASTKGPSVFPLAPSSKSTSGGTAALGCLVKDYFPEPVTVSWNSGALTSGVHTFPAVLQSSGLYSLSSVVTVPSSSLGTQTYICNVNHKPSNTKVDKKV[human IgG1 Fc left out]
light: DIQMTQSPSSLSASVGDRVTITCKASQNVGNNIAWYQQKPGKAPKLLIYYASNRYTGVPSRFSGSGYGTDFTLTISSLQPEDFATYYCQRLYNSPFTFGGGTKVEIKRTVAAPSVFIFPPSDEQLKSGTASVVCLLNNFYPREAKVQWKVDNALQSGNSQESVTEQDSKDSTYSLSSTLTLSKADYEKHKVYACEVTHQGLSSPVTKSFNRGEC
In the case of B1, the “tumor volume (mm^3 ± SEM)” value (37622A1 NSCLC xenografts; DAY 4) is reported as 205 ± 23 mm^3, the “tumor volume (mm^3 ± SEM)” value (37622A1 NSCLC xenografts; DAY 7) is reported as 195 ± 22 mm^3 and the “tumor volume (mm^3 ± SEM)” value (37622A1 NSCLC xenografts; DAY 11) is reported as 147 ± 23 mm^3. For the same molecule, the “tumor volume (mm^3 ± SEM)” value (37622A1 NSCLC xenografts; DAY 14) was 118 ± 18 mm^3, the “tumor volume (mm^3 ± SEM)” value (37622A1 NSCLC xenografts; DAY 18) was 93 ± 14 mm^3 and the “tumor volume (mm^3 ± SEM)” value (37622A1 NSCLC xenografts; DAY 21) was 98 ± 20 mm^3. For the same molecule, the “tumor volume (mm^3 ± SEM)” value (37622A1 NSCLC xenografts; DAY 25) was 93 ± 24 mm^3, the “tumor volume (mm^3 ± SEM)” value (37622A1 NSCLC xenografts; DAY 28) was 99 ± 26 mm^3 and the “tumor volume (mm^3 ± SEM)” value (37622A1 NSCLC xenografts; DAY 32) was 165 ± 45 mm^3. For the same molecule, the “tumor volume (mm^3 ± SEM)” value (37622A1 NSCLC xenografts; DAY 35) was 229 ± 59 mm^3, the “tumor volume (mm^3 ± SEM)” value (37622A1 NSCLC xenografts; DAY 39) was 294 ± 78 mm^3 and the “tumor volume (mm^3 ± SEM)” value (37622A1 NSCLC xenografts; DAY 42) was 318 ± 71 mm^3. The “tumor volume (mm^3 ± SEM)” value (37622A1 NSCLC xenografts; DAY 46) was 412 ± 106 mm^3, the “tumor volume (mm^3 ± SEM)” value (37622A1 NSCLC xenografts; DAY 49) was 521 ± 132 mm^3 and the “tumor volume (mm^3 ± SEM)” value (37622A1 NSCLC xenografts; DAY 53) was 629 ± 162 mm^3. For the same molecule, the “tumor volume (mm^3 ± SEM)” value (37622A1 NSCLC xenografts; DAY 56) was 808 ± 196 mm^3, the “tumor volume (mm^3 ± SEM)” value (37622A1 NSCLC xenografts; DAY 60) was 917 ± 209 mm^3 and the “tumor volume (mm^3 ± SEM)” value (37622A1 NSCLC xenografts; DAY 63) was 917 ± 147 mm^3. The “tumor volume (mm^3 ± SEM)” value (37622A1 NSCLC xenografts; DAY 67) was 1116 ± 173 mm^3, the “tumor volume (mm^3 ± SEM)” value (37622A1 NSCLC xenografts; DAY 70) was 1181 ± 203 mm^3 and the “tumor volume (mm^3 ± SEM)” value (37622A1 NSCLC xenografts; DAY −1) was 183 ± 17 mm^3. The “effect on growth of 37622A1 NSCLC xenografts (in words)” value (37622A1 NSCLC xenografts; Q4dx4, doses of Table 11) was “inhibited growth of 37622A1 NSCLC xenografts”, the “effect on growth of MDA-MB-468 breast xenografts (in words)” value ([1]; humanized ADCs, Q4dx4, doses of Tables 14 and 15) was “inhibited growth of MDA-MB-468 breast xenografts in a dose-dependent manner” and the “tumor volume (mm^3 ± SEM)” value ([1]; Dose 1 mg/kg Q4dx4 iv, DAY 7) was 434 ± 29 mm^3. For the same molecule, the “tumor volume (mm^3 ± SEM)” value ([1]; Dose 1 mg/kg Q4dx4 iv, DAY 11) was 471 ± 39 mm^3, the “tumor volume (mm^3 ± SEM)” value ([1]; Dose 1 mg/kg Q4dx4 iv, DAY 14) was 470 ± 44 mm^3 and the “tumor volume (mm^3 ± SEM)” value ([1]; Dose 1 mg/kg Q4dx4 iv, DAY 19) was 536 ± 49 mm^3. For the same molecule, the “tumor volume (mm^3 ± SEM)” value ([1]; Dose 1 mg/kg Q4dx4 iv, DAY 22) was 552 ± 44 mm^3, the “tumor volume (mm^3 ± SEM)” value ([1]; Dose 1 mg/kg Q4dx4 iv, DAY 25) was 597 ± 48 mm^3 and the “tumor volume (mm^3 ± SEM)” value ([1]; Dose 1 mg/kg Q4dx4 iv, DAY 28) was 660 ± 53 mm^3. The “tumor volume (mm^3 ± SEM)” value ([1]; Dose 1 mg/kg Q4dx4 iv, DAY 32) was 634 ± 74 mm^3, the “tumor volume (mm^3 ± SEM)” value ([1]; Dose 1 mg/kg Q4dx4 iv, DAY 35) was 742 ± 80 mm^3 and the “tumor volume (mm^3 ± SEM)” value ([1]; Dose 1 mg/kg Q4dx4 iv, DAY 40) was 794 ± 87 mm^3. The “tumor volume (mm^3 ± SEM)” value ([1]; Dose 1 mg/kg Q4dx4 iv, DAY 43) was 878 ± 78 mm^3, the “tumor volume (mm^3 ± SEM)” value ([1]; Dose 1 mg/kg Q4dx4 iv, DAY 46) was 868 ± 99 mm^3 and the “tumor volume (mm^3 ± SEM)” value ([1]; Dose 1 mg/kg Q4dx4 iv, DAY 49) was 996 ± 109 mm^3. The “tumor volume (mm^3 ± SEM)” value ([1]; Dose 3 mg/kg Q4dx4 iv, DAY 0) was 344 ± 11 mm^3, the “tumor volume (mm^3 ± SEM)” value ([1]; Dose 3 mg/kg Q4dx4 iv, DAY 7) was 378 ± 21 mm^3 and the “tumor volume (mm^3 ± SEM)” value ([1]; Dose 3 mg/kg Q4dx4 iv, DAY 11) was 403 ± 21 mm^3. For the same molecule, the “tumor volume (mm^3 ± SEM)” value ([1]; Dose 3 mg/kg Q4dx4 iv, DAY 14) was 370 ± 28 mm^3, the “tumor volume (mm^3 ± SEM)” value ([1]; Dose 3 mg/kg Q4dx4 iv, DAY 19) was 339 ± 19 mm^3 and the “tumor volume (mm^3 ± SEM)” value ([1]; Dose 3 mg/kg Q4dx4 iv, DAY 22) was 360 ± 17 mm^3. The “tumor volume (mm^3 ± SEM)” value ([1]; Dose 3 mg/kg Q4dx4 iv, DAY 25) was 381 ± 23 mm^3, the “tumor volume (mm^3 ± SEM)” value ([1]; Dose 3 mg/kg Q4dx4 iv, DAY 28) was 443 ± 33 mm^3 and the “tumor volume (mm^3 ± SEM)” value ([1]; Dose 3 mg/kg Q4dx4 iv, DAY 32) was 437 ± 28 mm^3. For the same molecule, the “tumor volume (mm^3 ± SEM)” value ([1]; Dose 3 mg/kg Q4dx4 iv, DAY 35) was 495 ± 33 mm^3, the “tumor volume (mm^3 ± SEM)” value ([1]; Dose 3 mg/kg Q4dx4 iv, DAY 40) was 535 ± 41 mm^3 and the “tumor volume (mm^3 ± SEM)” value ([1]; Dose 3 mg/kg Q4dx4 iv, DAY 43) was 619 ± 47 mm^3. The “tumor volume (mm^3 ± SEM)” value ([1]; Dose 3 mg/kg Q4dx4 iv, DAY 46) was 636 ± 38 mm^3, the “tumor volume (mm^3 ± SEM)” value ([1]; Dose 3 mg/kg Q4dx4 iv, DAY 49) was 723 ± 71 mm^3 and the “tumor volume (mm^3 ± SEM)” value ([1]; Dose 3 mg/kg Q4dx4 iv, DAY 53) was 795 ± 67 mm^3. The “tumor volume (mm^3 ± SEM)” value ([1]; Dose 3 mg/kg Q4dx4 iv, DAY 56) was 819 ± 77 mm^3, the “tumor volume (mm^3 ± SEM)” value ([1]; Dose 3 mg/kg Q4dx4 iv, DAY 60) was 976 ± 115 mm^3 and the “tumor volume (mm^3 ± SEM)” value ([1]; Dose 10 mg/kg Q4dx4 iv, DAY 0) was 343 ± 10 mm^3. The “tumor volume (mm^3 ± SEM)” value ([1]; Dose 10 mg/kg Q4dx4 iv, DAY 7) was 370 ± 18 mm^3, the “tumor volume (mm^3 ± SEM)” value ([1]; Dose 10 mg/kg Q4dx4 iv, DAY 11) was 302 ± 21 mm^3 and the “tumor volume (mm^3 ± SEM)” value ([1]; Dose 10 mg/kg Q4dx4 iv, DAY 14) was 228 ± 19 mm^3. The “tumor volume (mm^3 ± SEM)” value ([1]; Dose 10 mg/kg Q4dx4 iv, DAY 19) was 112 ± 23 mm^3, the “tumor volume (mm^3 ± SEM)” value ([1]; Dose 10 mg/kg Q4dx4 iv, DAY 22) was 52 ± 21 mm^3 and the “tumor volume (mm^3 ± SEM)” value ([1]; Dose 10 mg/kg Q4dx4 iv, DAY 25) was 63 ± 25 mm^3. For the same molecule, the “tumor volume (mm^3 ± SEM)” value ([1]; Dose 10 mg/kg Q4dx4 iv, DAY 28) was 64 ± 26 mm^3, the “tumor volume (mm^3 ± SEM)” value ([1]; Dose 10 mg/kg Q4dx4 iv, DAY 32) was 71 ± 31 mm^3 and the “tumor volume (mm^3 ± SEM)” value ([1]; Dose 10 mg/kg Q4dx4 iv, DAY 35) was 85 ± 38 mm^3. For the same molecule, the “tumor volume (mm^3 ± SEM)” value ([1]; Dose 10 mg/kg Q4dx4 iv, DAY 40) was 125 ± 44 mm^3, the “tumor volume (mm^3 ± SEM)” value ([1]; Dose 10 mg/kg Q4dx4 iv, DAY 43) was 134 ± 42 mm^3 and the “tumor volume (mm^3 ± SEM)” value ([1]; Dose 10 mg/kg Q4dx4 iv, DAY 46) was 143 ± 42 mm^3. The “tumor volume (mm^3 ± SEM)” value ([1]; Dose 10 mg/kg Q4dx4 iv, DAY 49) was 159 ± 44 mm^3, the “tumor volume (mm^3 ± SEM)” value ([1]; Dose 10 mg/kg Q4dx4 iv, DAY 53) was 201 ± 63 mm^3 and the “tumor volume (mm^3 ± SEM)” value ([1]; Dose 10 mg/kg Q4dx4 iv, DAY 56) was 211 ± 63 mm^3. The “tumor volume (mm^3 ± SEM)” value ([1]; Dose 10 mg/kg Q4dx4 iv, DAY 60) was 240 ± 63 mm^3 and the “tumor volume (mm^3 ± SEM)” value ([1]; Dose 10 mg/kg Q4dx4 iv, DAY 63) was 201 ± 57 mm^3.
